The values below come from US9795597B2, “Cyclopropylamines as LSD1 inhibitors” (GlaxoSmithKline Intellectual Property (No.2) Limited, priority 2011, dated 2017).

Protein sequences, listed by entry. Tags and fused reporters are not part of them.
UniProt P27338, whole entry: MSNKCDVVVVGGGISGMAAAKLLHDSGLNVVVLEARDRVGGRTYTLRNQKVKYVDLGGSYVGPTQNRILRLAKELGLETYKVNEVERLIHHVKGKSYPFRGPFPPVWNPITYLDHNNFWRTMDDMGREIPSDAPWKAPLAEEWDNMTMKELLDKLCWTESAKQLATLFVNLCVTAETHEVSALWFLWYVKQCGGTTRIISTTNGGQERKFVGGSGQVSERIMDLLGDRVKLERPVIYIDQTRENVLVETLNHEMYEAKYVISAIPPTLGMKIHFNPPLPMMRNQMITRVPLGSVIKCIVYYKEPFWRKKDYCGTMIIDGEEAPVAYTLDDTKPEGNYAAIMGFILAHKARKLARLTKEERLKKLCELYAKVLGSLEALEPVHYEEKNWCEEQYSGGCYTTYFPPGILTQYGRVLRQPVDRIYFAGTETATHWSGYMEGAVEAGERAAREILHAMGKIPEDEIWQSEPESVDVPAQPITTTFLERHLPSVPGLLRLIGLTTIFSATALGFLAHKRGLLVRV

In this test the target is T1, MAO-B (Homo sapiens, UniProt P27338).
T1 construct: purchased Gentest-BD Biosciences 456284
Put plainly: Biochemical assay for MAO-B activity (FLINT, benzylamine/amplex red). Particulars: average of two or more tests; 30 min preincubation of enzyme and compound; read-out: MAOB PIC50 MEAN (converted). The procedure:
Biochemical Assay for MAO-B Activity
The MAO-B FLINT assay is performed in a buffer containing 50 mM potassium phospate, pH 7.4, in milliQ ultrapure water. […] The enzyme and test compound are allowed to incubate together for 30 minutes at room temperature. Five microliters of the substrate mix are then added to each well of the plate to initiate the reaction. The plates are covered, protected from light and allowed to incubate for one hour at room temperature. […] Percent inhibition is calculated based on no compound and no enzyme controls, and inhibition curves are then plotted to determine PIC50 values.

For the molecule `c1ccc([C@@H]2C[C@H]2NCCC2CCNCC2)cc1` (relative stereo) [Example 23, [trans-2-Phenylcyclopropyl][2-(4-piperidinyl)ethyl]amine], the IC50 is 63.1 µM.
